## Antibody variant affinities, Ab-95 light chain, assay 2

Target: peptide PDVDLGDISGINAS, taken from heptad repeat 2 (HR2) of SARS-CoV-2 spike.

Parent scFv Ab-95: VH joined to VL by the linker GGGGSGGGGSGGGGS. Changes lie in the light chain CDRs alone.
VH: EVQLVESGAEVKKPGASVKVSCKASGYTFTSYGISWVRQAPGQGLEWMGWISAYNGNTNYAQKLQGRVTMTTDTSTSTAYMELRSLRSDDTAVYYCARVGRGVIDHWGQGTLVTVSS
VL: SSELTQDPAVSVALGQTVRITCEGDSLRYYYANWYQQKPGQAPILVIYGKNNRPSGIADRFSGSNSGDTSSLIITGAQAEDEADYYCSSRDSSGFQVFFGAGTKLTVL

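Phage display of a naive human antibody library on the peptide gave the parent. Library AAYL52 holds single substitutions and randomly drawn double and triple substitutions in the CDRs. The assay is AlphaSeq: two haploid yeast populations carry antibody and antigen on their surface. Binding brings cells together so that they mate, and sequencing counts the barcode pairs among the diploids. Each replicate has its own calibration line, from reference interactions of the BCL2 family. The assay was run in three technical replicates.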

Positions count from residue 1 of the parent VL; F95K puts K in place of F.
Every variant below is changed at F98 of the VL (sequential numbering).
The Kd shown is the geometric mean over detected replicates; a lower Kd is a better binder.
A pair that was not seen in any replicate is written "no signal"; this usually means weak binding, but a binder can also be missed.
Nonspecific signal, from three strains lacking the peptide, appeared in 28% of pairings of library AAYL52, centred on 8.2 µM (5% of these signals below 800 nM); values are not corrected for it. The control count says in how many pairings with the empty strains this scFv gave a signal.

| changes | Kd (apparent) | replicates with signal | control signals |
|---|---|---|---|
| F95K/F98W | 4.0 µM | 3/3 | 2/9 |
| G49W/R90V/F98I | no signal | 0/3 | 0/9 |
| Y31I/N52H/F98K | no signal | 0/3 | 0/9 |
| D25Y/A32K/F98R | 18 µM | 3/3 | 3/9 |
| S26W/L27V/F98A | 730 nM | 3/3 | 2/9 |
| Q96A/V97L/F98E | 400 nM | 3/3 | 1/9 |
| S88C/S93E/F98A | 570 nM | 1/3 | 1/9 |
| S89R/G94A/F98L | 320 nM | 3/3 | 6/9 |
| Y29E/S92C/F98G | 860 nM | 3/3 | 4/9 |
| G24F/Y29T/F98K | 5.2 µM | 3/3 | 3/9 |
| S93L/F95P/F98Q | 270 µM | 1/3 | 2/9 |
| L27Q/D91V/F98C | 1.8 µM | 3/3 | 1/9 |
| R53E/S93K/F98Y | 36 µM | 3/3 | 4/9 |
| N51R/V97M/F98Q | 690 µM | 1/3 | 2/9 |
| Y31S/Q96R/F98H | 120 nM | 3/3 | 2/9 |
| N33H/G94A/F98G | 20 µM | 1/3 | 2/9 |
| G49H/S92V/F98Q | no signal | 0/3 | 4/9 |
| S26R/G49Y/F98S | 3.8 µM | 1/3 | 2/9 |
| G24C/N52I/F98P | 1.2 µM | 2/3 | 2/9 |
| Y30W/A32H/F98D | 130 µM | 1/3 | 4/9 |
| A32L/N33I/F98L | no signal | 0/3 | 3/9 |
| N51W/S93T/F98S | 3.8 µM | 1/3 | 2/9 |
| P54E/S55H/F98C | 600 nM | 3/3 | 1/9 |
| Y30M/N52R/F98E | 220 nM | 3/3 | 3/9 |
| G24K/S26K/F98Y | 8.1 µM | 1/3 | 1/9 |
| N33G/K50I/F98E | 3.2 µM | 1/3 | 3/9 |
| D25Y/S88C/F98G | 530 nM | 3/3 | 0/9 |
| D25K/F95Q/F98Q | 3.3 µM | 1/3 | 1/9 |
| G24P/D91W/F98D | 17 µM | 2/3 | 3/9 |
| A32Y/G94D/F98C | no signal | 0/3 | 2/9 |
| E23L/G49W/F98H | no signal | 0/3 | 2/9 |
| R28V/Y31S/F98S | 170 nM | 3/3 | 1/9 |
| L27C/Q96L/F98P | no signal | 0/3 | 2/9 |
| R28V/D91W/F98L | 4.8 µM | 2/3 | 1/9 |
| P54A/S88M/F98A | 67 nM | 3/3 | 5/9 |
| D25M/S89M/F98G | 1.7 µM | 2/3 | 4/9 |
| P54I/V97I/F98R | no signal | 0/3 | 2/9 |
| F95L/V97E/F98H | 160 nM | 3/3 | 0/9 |
| E23H/K50S/F98V | 30 µM | 1/3 | 2/9 |
| Y29C/P54Y/F98N | 27 µM | 2/3 | 5/9 |
| G94P/F98G | 100 nM | 3/3 | 3/9 |
| S26P/G94P/F98C | 1.7 µM | 3/3 | 3/9 |
| S89C/G94W/F98A | 280 nM | 3/3 | 5/9 |
| P54A/R90V/F98I | 140 µM | 2/3 | 2/9 |
| N33Q/V97T/F98R | no signal | 0/3 | 1/9 |
| Y29G/V97I/F98P | 3.6 µM | 3/3 | 2/9 |
| Y30C/Q96F/F98C | 4.9 µM | 1/3 | 1/9 |
| D25I/N51E/F98N | 1.5 µM | 3/3 | 0/9 |
| R53H/S88Y/F98D | no signal | 0/3 | 2/9 |
| Y30N/R90F/F98P | 6.3 nM | 3/3 | 5/9 |
| R28V/R53G/F98K | 1.2 µM | 1/3 | 1/9 |
| G24K/N52M/F98V | 2.4 µM | 2/3 | 3/9 |
| G49M/S92W/F98H | 76 µM | 1/3 | 3/9 |

For reference, 7 entries of the list once more:

| changes | Kd (apparent) | replicates with signal | control signals |
|---|---|---|---|
| L27C/Q96L/F98P | no signal | 0/3 | 2/9 |
| P54A/S88M/F98A | 67 nM | 3/3 | 5/9 |
| Y31I/N52H/F98K | no signal | 0/3 | 0/9 |
| R28V/D91W/F98L | 4.8 µM | 2/3 | 1/9 |
| F95K/F98W | 4.0 µM | 3/3 | 2/9 |
| R28V/R53G/F98K | 1.2 µM | 1/3 | 1/9 |
| N33H/G94A/F98G | 20 µM | 1/3 | 2/9 |

Source: Engelhart et al. 2022 (doi:10.1038/s41597-022-01779-4), MIT Lincoln Laboratory and A-Alpha Bio; data file from the FLAb repository.